Assay [1] concerns primary murine splenocytes. More on the design: species or system Balb/c mice. The settings on record: mouse, in vivo.
A further assay deals with Colon-26 cells. Details: species or system Balb/c mice. The following applies: mouse, in vivo.

On to IL-2: cytokine, for which the CD25 marker expression result in assay [1] is “significant activation”. Moreover, the “cytolysis by NK/NKT cells” value with Colon-26 cells was “significant increases”.

These data come from US20040018193A1 (priority 2002, published 2004).
